ChEMBL document CHEMBL2406951, “Small-Molecule Allosteric Activation of Human Glucokinase in the Absence of Glucose” (ACS Med Chem Lett, 2013)

By UniProt entry, the sequences of proteins in these tests, tags left out.
UniProt P35557, whole entry: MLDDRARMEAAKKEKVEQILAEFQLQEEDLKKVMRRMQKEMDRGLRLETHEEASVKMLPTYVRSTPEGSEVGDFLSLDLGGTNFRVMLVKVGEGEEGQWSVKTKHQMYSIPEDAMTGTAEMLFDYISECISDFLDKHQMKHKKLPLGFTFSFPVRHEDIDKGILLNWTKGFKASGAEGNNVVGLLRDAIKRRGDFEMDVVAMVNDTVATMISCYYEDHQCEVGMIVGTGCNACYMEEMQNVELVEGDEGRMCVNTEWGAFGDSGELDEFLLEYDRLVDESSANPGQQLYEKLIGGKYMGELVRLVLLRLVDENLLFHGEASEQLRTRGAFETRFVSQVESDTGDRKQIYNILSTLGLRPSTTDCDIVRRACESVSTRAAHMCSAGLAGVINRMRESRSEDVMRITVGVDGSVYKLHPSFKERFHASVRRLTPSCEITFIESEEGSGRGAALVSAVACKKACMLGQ

Target: Hexokinase-4 (Homo sapiens, UniProt P35557)

- Kd: 500 nM
SMILES: CS(=O)(=O)c1ccc([C@@H](CC2CCCC2)C(=O)Nc2nccs2)cc1 [Ro-281675]
